The target of assay [1] is fluorescein-labelled divalent stargazin-derived peptide ligand. Put plainly: fluorescence polarisation; direct titration: 50 nM fluorescein-labelled stargazin ligand (divalent or monovalent) against increasing concentrations of PDZ domains; apparent KD.
For assay [2], the target named is Xph15-ETWV (Xph15 fused by a (GGS)12 linker to the ETWV PDZ domain-binding motif), biotinylated. Put plainly: SPR; single-cycle kinetics; biotinylated Xph clone or Xph-binding motif fusion captured on a CAP sensor chip, tandem PDZ domains as analyte (twofold dilutions); 25 °C; PBS with 500 mM NaCl pH 7.4, 0.1% Tween 20; 30 µL/min; 1:1 Langmuir model; one set of constants for each independent experiment.

Amino acid sequences for entries named in this document (tags omitted). A change or cut given only in a name is not applied to a line headed by its entry. Residues count along the entry.
UniProt Q71RJ2: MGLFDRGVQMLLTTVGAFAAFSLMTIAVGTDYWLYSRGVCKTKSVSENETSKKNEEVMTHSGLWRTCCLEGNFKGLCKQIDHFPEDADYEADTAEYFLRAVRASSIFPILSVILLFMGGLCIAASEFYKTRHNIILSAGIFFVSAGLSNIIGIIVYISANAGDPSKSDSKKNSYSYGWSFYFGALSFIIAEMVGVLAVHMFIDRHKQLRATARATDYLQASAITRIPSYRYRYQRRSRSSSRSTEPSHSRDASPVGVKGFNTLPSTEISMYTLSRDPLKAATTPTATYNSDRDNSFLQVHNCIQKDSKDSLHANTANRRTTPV
UniProt P31016, 61-249: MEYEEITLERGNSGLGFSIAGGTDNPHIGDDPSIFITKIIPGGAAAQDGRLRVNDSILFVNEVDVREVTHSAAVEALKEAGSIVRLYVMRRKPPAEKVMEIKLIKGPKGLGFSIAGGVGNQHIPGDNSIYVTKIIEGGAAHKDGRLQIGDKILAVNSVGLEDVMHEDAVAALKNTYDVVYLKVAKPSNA

Assay [3] deals with Xph18-Stg (Xph18 fused by a 26-amino-acid linker to the last 13 amino acids of stargazin), biotinylated (UniProt Q71RJ2). Described as above.
The target in assay [4] is Xph20-Stg (Xph20 fused by a 26-amino-acid linker to the last 13 amino acids of stargazin), biotinylated (UniProt Q71RJ2). Described as above.

Where “and” joins values, the source holds several entries; their conditions need not be identical. Equal values may be shown once.

Consider “PSD-95 tandem PDZ domains 1 and 2 (PSD-95-12), from pET-NO (domain or fragment)”, for which, in assay [1], the Kd stood at 43300 pM.
As to “PSD-95 tandem PDZ domains (first two PDZ domains of PSD-95, residues 61-249) (from UniProt P31016 61-249) (domain or fragment)”, the Kd in assay [2] was 271 pM and 220 pM; in assay [3], 19.9 pM and 48.4 pM; in assay [4] it was 37.4 pM and 71.2 pM.
Take “PSD-93 tandem PDZ domains 1 and 2 (PSD-93-12), from pET-NO (domain or fragment)”: the Kd in assay [1] came out at 16300 pM.

The values are drawn from publication PMC6778148.
